Results from article PMC2360244 (British Journal of Cancer, 2007).
Read-outs that look alike come from different tables or passages of the source. One block for each compound: values may come before it.

Protein sequences, listed by entry. Tags and fused reporters are not part of them.
UniProt Q4QQW4, whole entry: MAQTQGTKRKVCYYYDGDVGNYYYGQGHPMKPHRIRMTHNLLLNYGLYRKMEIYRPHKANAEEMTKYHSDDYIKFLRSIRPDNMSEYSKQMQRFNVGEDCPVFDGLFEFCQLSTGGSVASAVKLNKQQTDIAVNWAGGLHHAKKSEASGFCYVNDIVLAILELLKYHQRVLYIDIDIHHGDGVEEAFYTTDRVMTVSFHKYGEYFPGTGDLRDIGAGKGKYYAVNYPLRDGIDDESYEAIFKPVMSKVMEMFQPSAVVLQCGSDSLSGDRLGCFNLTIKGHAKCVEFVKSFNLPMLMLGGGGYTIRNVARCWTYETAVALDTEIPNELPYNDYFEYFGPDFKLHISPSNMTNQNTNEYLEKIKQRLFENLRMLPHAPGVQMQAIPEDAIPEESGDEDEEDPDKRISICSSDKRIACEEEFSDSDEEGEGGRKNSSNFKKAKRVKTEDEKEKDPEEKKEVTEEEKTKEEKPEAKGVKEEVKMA

Columns and labels:
HDAC1 = HDAC1 (Rattus norvegicus, UniProt Q4QQW4); assay type: biochemical; conditions: read-out: Liver extract B61 HDAC1 IC50
[1] = system: tubulin acetylation and Hsp70 in A2780 ovarian carcinoma cells; experiment: Western blot of acetylated tubulin and Hsp70 in A2780 cells (HDAC6 readout); assay type: cell-based, human; conditions: 24 h

SMILES: Cc1[nH]c2ccccc2c1CCNCc1ccc(/C=C/C(=O)NO)cc1 [Panobinostat]
IC50 (HDAC1): 47 ± 5 nM

IC50 (HDAC1; rat liver extract, substrate B61): 13.3 ± 1.4 nM
SMILES: CC(/C=C/C(=O)NO)=C\[C@@H](C)C(=O)c1ccc(N(C)C)cc1 [TSA, Trichostatin A]

SMILES: O=C(CCCCCCC(=O)Nc1ccccc1)NO [Vorinostat, suberoylanilide hydroxamic acid]
concentration at which tubulin acetylation (and Hsp70 induction) is evident [1]: 100 nM
